The record followed here is US20160318933A1, “FUSED PYRAZOLE DERIVATIVE” (SUMITOMO DAINIPPON PHARMA CO., LTD., priority 2013, published 2016).

Chains of the proteins cited; added tags and fusions are not shown.
UniProt P21917, whole entry: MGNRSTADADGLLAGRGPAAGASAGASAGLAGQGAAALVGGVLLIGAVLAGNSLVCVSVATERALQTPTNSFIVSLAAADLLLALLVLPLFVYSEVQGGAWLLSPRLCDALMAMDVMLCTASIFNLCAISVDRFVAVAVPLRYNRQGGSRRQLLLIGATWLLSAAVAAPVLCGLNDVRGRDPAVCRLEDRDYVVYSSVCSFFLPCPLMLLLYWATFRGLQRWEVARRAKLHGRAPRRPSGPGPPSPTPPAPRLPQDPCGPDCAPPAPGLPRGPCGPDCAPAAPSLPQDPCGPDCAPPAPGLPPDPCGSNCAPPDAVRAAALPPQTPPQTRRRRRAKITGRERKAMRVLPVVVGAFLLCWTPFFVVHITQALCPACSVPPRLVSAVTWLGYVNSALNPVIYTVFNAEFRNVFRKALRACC

This assay has as its target human brain-derived dopamine D4 receptor (Homo sapiens, UniProt P21917). Briefly: Agonistic activity in G protein dependent pathway of dopamine D4 receptor (aequorin intracellular calcium luminescence, FDSS). In kind it is cell-based. As to conditions: CHO-K1 or HEK293 cells transfected with D4 receptor; for Maximal activity on D4 receptor (%): Emax, luminescent signal with 1 μM dopamine = 100%, without compound = 0%; for EC50: concentration required to achieve a 50% response of Emax. For orientation: Calcium flux is commonly read through the fluorescence of an indicator in the cells.

The term EC50 denotes the concentration that produces a half-maximal response. In the case of `Cc1ccc(CN2CCn3nc(-c4ccccn4)c(C)c3C2)cn1`, the “Maximal activity on D4 receptor (%)” value came out at 64% and the concentration giving a half-maximal response (EC50) was determined as 28 nM.
Turning to `Cc1ccc(CN2CCn3nc(-c4ccccn4)c(Cl)c3C2)cc1`, the “Maximal activity on D4 receptor (%)” value was determined as 52% and the EC50 was found to be 42 nM.
`Cc1cccnc1-c1cc2n(n1)CCN(Cc1ccc(F)nc1)C2`: the “Maximal activity on D4 receptor (%)” value is 61% and the concentration for a half-maximal effect (EC50) amounted to 85 nM.
